According to patent US9499534B2, “Thiazole-substituted aminopyrimidines as spleen tyrosine kinase inhibitors” (priority 2013, dated 2016):

Target: recombinant human GST-SYK (Homo sapiens (Human), UniProt P43405)
Test: Homogeneous Time-Resolved Fluorescence (HTRF) Assay for the Recombinant Human Syk Enzyme
Assay type: biochemical
Conditions: GST-SYK 5 pM, ATP 25 μM, biotinylated substrate peptide 250 nM, HTRF signal
Experimental: Homogeneous Time-Resolved Fluorescence (HTRF) Assay for the Recombinant Human Syk Enzyme
A recombinant GST-hSYK fusion protein was used to measure potency of compounds to inhibit human Syk activity. The recombinant human GST-SYK (Carna Biosciences #08-176) (5 pM final concentration) was incubated with various concentrations of the inhibitor diluted in DMSO (0.1% final concentration) for 10 minutes at room temperature in 15 mM Tris-HCl (pH 7.5), 0.01% tween 20, 2 mM DTT in 384 well plate format. To initiate the reaction the biotinylated substrate peptide (250 nM final concentration) that contains the phosphorylation site for Syk was added with magnesium (5 mM final concentration) and ATP (25 μM final concentration). Final volume of the reaction was 10 μL. Phosphorylation of the peptide was allowed to proceed for 45′ at room temperature. To quench the reaction and detect the phosphorylated product, 2 nM of a Europium-anti-phosphotyrosine antibody (Perkin Elmer #AD0161) and 70 nM SA-APC (Perkin-Elmer #CR130-100) were added together in 15 mM Tris pH 7.5, 40 mM EDTA, 0.01% tween 20. Final volume of the quenching solution was 10 μL.
The resulting HTRF signal was measured after 30 minutes on an EnVision (Perkin-Elmer) reader using a time-resolved fluorescence protocol. Table A below lists activities as IC50 values (nM) for representative compounds of the invention.

**Q.** How did the IC50 turn out when “(1R,4S or 1S,4R)-4-hydroxy-4-{5-[4′-(methoxymethyl)-5-{[4-fluoromethyl)pyrimidin-2-yl]amino}biphenyl-3-yl]-1,3-thiazol-2-yl}-2,2-dimethylcyclohexanecarboxylic acid [Example 2.13]” was run?
**A.** 10.2 nM
